The conditions of the data set: once daily on days 1–21 in 28-day treatment cycles.

Each structure is given as a SMILES string.

`Cn1c(=O)c(F)c(Nc2ccc(I)cc2F)c2c(=O)n(C[C@@H](O)CO)cnc21` [TAK-733]: the “maximum tolerated dose (MTD)” value is reported as 16 mg.

The record behind these values is paper PMC5306265, “A phase I dose-escalation study of TAK-733, an investigational oral MEK inhibitor, in patients with advanced solid tumors” (Investigational New Drugs, 2016).
